Tests used:
Type in all cases: cell-based, human
HUVEC [1] = conditions: for inhibition of proliferation / Activity in Proliferation / Proliferation Inhibition (IC50 in uM): HUVEC; for Activity in Proliferation: Yes/No summary; for Proliferation Inhibition (IC50 in uM): summary tables 2-4, 6, 7
Method: Several assays were used to test the peptides discussed in the Examples herein. A colorimetric based proliferation assay using WST-1 (Roche, 11644807001) proliferation reagent was carried out using HUVEC cells. 2000 cells/well were plated in 96-well plates and allowed to adhere overnight. On the following day, the media was exchanged with fully supplemented media containing peptides or equivalent DMSO vehicle for the controls. Three days later the media containing the peptides was replaced with serum-free EBM-2 media containing WST-1 reagent and the plates were incubated for four hours as per the manufacturer's recommendations. Changes in color, due to the formazan dye resulted from the cleavage of the tetrazolium salt WST-1 by the mitochondrial succinate-tetrazolium reductase, were read on a Victor V fluorescence plate reader (Perkin Elmer, MA) by measuring the absorbance at 450 nm Dose response curves of percent live cells (in comparison to untreated cells but incubated in complete media with 0.2% DMSO) were created. Assays were performed in at least two independent replicates and each replicate was performed using three experimental triplicates.

HUVEC [2] = test: HUVEC tube formation assay on Matrigel; conditions: for Tube formation Inhibition (100 uM): 100 uM peptide; for Activity in Tube formation: Yes/No summary; for inhibition of tube formation (FIG. 20): high dose, 100 nM
Method: The compounds also were tested for their ability to inhibit tube formation, a process critical in angiogenesis. Endothelial cells spontaneously form a network of tubes when plated on extracts of extracellular matrix. This in vitro assay combines aspects of adhesion and migration and it is routinely used in angiogenesis research (Oliveira-Ferrer et al., 2008). The ability to inhibit tube formation is a comprehensive assessment of the anti-angiogenic potential. The protocol was described by Arnaoutova et al. (2009) and it consists of plating HUVEC on top of basement membrane extract and after incubation at 37° C. the cells naturally rearrange themselves in a network of tubes. Thus, 50 μL/well of Matrigel (BD Biosciences, San Jose, Calif.) was plated in a cold 96 well plate and incubated at 37° C. for 30 min for polymerization. 15,000 cells/well were added to the top of the gel and incubated in complete media in the presence or absence of peptide for 19 hours. Images were captured using the CCD Sensicam mounted on a Nikon microscope (Eclipse T-100). Assays were performed in at least two independent replicates and each replicate was performed using three experimental replicates and one image of a randomly chosen field was acquired per well.

HUVEC [3] = test: HUVEC migration assay (RT-CIM); conditions: for Migration Inhibition (50 uM): 50 uM peptide; for Activity in Migration: Yes/No summary, active = inhibitory potential greater than 30%; for inhibition of migration: concentration not given
Method: The inhibitory potential of the peptides was measured using a real time migration assay system based on electrical impedance (RT-CIM, ACEA Biosciences, CA). CIM 16 well plates (Roche, 05665817001) are composed of a top and bottom chamber separated by a microporous (8 μm) polycarbonate membrane. The membrane was coated with fibronectin (20 μg/mL), and 45,000 cells/well in serum free media with or without peptides were added to the top compartment. Media with chemoattractant (i.e., fully supplemented EBM-2) was added to the bottom compartment of the chamber and the plate was incubated at 37° C. for 20 hours. The sensors integrated on the bottom side of the membrane monitor and continuously record changes in impedance as the cells move through the membrane. The RT-CIM technology allows for easy quantification of cell migration by monitoring the cell index derived from the measured impedances. Assays were performed in at least two independent replicates and each replicate was performed using two experimental duplicates.

HUVEC [4] = conditions: for Adhesion Inhibition (100 uM): 100 uM peptide; for Activity in Adhesion: Yes/No summary, active = inhibitory potential greater than 30%; for inhibition of adhesion: concentration not given
Method: Similar to the migration assays, the inhibition activity of the peptide in cellular adhesion was assessed using the RT-CIM technology. In this case, 25,000 cells/well were plated in 16 wells E-plates (Roche, Basel Switzerland) in the presence or absence of the peptide. The adhesion was monitored over time (3 hours) by measuring changes in the electrical impedance, which is a direct measure of the cells adhering on the electrodes. […] Assays were performed in at least two independent replicates and each replicate was performed using two experimental duplicates.

| Compound | IC50 (HUVEC [1]) | inhibition of proliferation (HUVEC [1]) | Activity in Proliferation (HUVEC [1]) | Proliferation Inhibition (IC50 in uM) (HUVEC [1]) | Tube formation Inhibition (100 uM) (HUVEC [2]) | Activity in Tube formation (HUVEC [2]) | inhibition of tube formation (FIG. 20) (HUVEC [2]) | Migration Inhibition (50 uM) (HUVEC [3]) | Activity in Migration (HUVEC [3]) | Adhesion Inhibition (100 uM) (HUVEC [4]) | Activity in Adhesion (HUVEC [4]) | inhibition of migration (HUVEC [3]) | inhibition of adhesion (HUVEC [4]) |
| --- | --- | --- | --- | --- | --- | --- | --- | --- | --- | --- | --- | --- | --- |
| CC[C@H](NC(=O)[C@@H](NC(=O)[C@H](CC(N)=O)NC(=O)[C@H](CC(N)=O)NC(=O)[C@@H](NC(=O)[C@H](CC(N)=O)NC(=O)[C@H](CC)NC(=O)[C@@H](N)Cc1ccccc1)[C@@H](C)CC)C(C)C)C(=O)N[C@@H](CC(N)=O)C(N)=O [SP2020, FAbuNINNVAbuN] | 9.8 ± 4.6 µM | active | Yes | Inactive | complete inhibition of tube formation | Yes | active | 31.89% | Yes | 84.4% | Yes | – | – |
| CC[C@H](NC(=O)[C@@H](N)Cc1ccccc1)C(=O)N[C@@H](CC(N)=O)C(=O)N[C@H](C(=O)N[C@@H](CC(N)=O)C(N)=O)[C@@H](C)CC [SP2021, FAbuNIN] | – | less active | No | Inactive | Inactive | No | inactive | Inactive | No | 0% | No | inactivation | inactivation |
| CC[C@H](NC(=O)[C@@H](N)Cc1ccccc1)C(=O)N[C@@H](CC(N)=O)C(=O)N[C@H](C(=O)N[C@@H](CC(N)=O)C(=O)N[C@H](C(N)=O)C(C)C)[C@@H](C)CC [SP2030, FAbuNINV] | 144 µM | less active | No | – | Inactive | No | – | −9.5% | No | 0% (−1.35%) | No | inactivation | inactivation |
